Test system: zebrafish embryos
Description: A table was listed below for details.
5-Selected concentrations of methyltetrahydrofolate in the experiment were recorded in the table.

Q: Which results are given for lead nitrate [Pb(NO3)2]?
A: survival rate of embryos (2 and 4 mM Pb(NO3)2, 2-8 hpf): reduced a survival rate of embryos; intersegmental blood vessels and pericardium edema (2 and 4 mM Pb(NO3)2, 48 hpf): did not affect development of intersegmental blood vessels in the zebrafish and did not lead to pericardium edema; embryo phenotype (2 and 4 mM Pb(NO3)2, 72 hpf): led to a shortened body length of the zebrafish and a large amount of embryonic malformations; 10 s heart rate (48 hpf), body length and malformation rate (72 hpf) (Pb(NO3)2 2 and 4 mM): seriously led to bradycardia, a shortened body length and an increased malformation rate of embryos
